Measurements as given in PMC7429481 (British Journal of Pharmacology, 2020).

The chains behind the UniProt entries cited, without tags or fusion partners. Residues count along the entry.
UniProt P25101, 21-427: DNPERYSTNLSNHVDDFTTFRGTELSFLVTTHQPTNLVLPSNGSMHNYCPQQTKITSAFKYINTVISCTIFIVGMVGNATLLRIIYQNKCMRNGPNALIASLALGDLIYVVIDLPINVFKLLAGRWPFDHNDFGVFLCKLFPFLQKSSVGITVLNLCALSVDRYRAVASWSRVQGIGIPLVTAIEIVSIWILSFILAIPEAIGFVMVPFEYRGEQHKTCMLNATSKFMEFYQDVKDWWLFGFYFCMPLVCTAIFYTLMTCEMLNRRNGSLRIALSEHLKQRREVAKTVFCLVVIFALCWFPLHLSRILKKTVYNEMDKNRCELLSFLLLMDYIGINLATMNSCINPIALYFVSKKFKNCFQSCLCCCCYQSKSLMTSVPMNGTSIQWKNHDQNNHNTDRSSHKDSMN

Target: SmBiT‐tagged endothelin A receptor (Homo sapiens, UniProt P25101)
Assay: mini‐Gq recruitment to endothelin A receptor by NanoBiT complementation
Conditions: ET1 1 µM, HEK293T, n = 4

- mini‐Gq recruitment response to endothelin A receptor: robust
Substance: endothelin‐1
